Patent US20110034498A1, “DOSING REGIMENS FOR THE TREATMENT OF CANCER” (priority 2006, published 2011)

Test system: PC-3 cells
Assay: mouse PC-3 prostate xenograft model, subcutaneous tumor burden
Assay type: in vivo
Details: PC-3 xenograft (Example 5); continuous doses 10.6 mg/kg/day, 25 days; versus vehicle
Text: The results of this experiment are summarized below.

SMILES: CC1=C2C[C@H]3[C@@H](CC=C4C[C@@H](O)CC[C@@]43C)[C@@H]2CC[C@]12O[C@@H]1C[C@H](C)CN[C@H]1[C@H]2C [Cyclopamine, reference compound]
- growth of the tumors: significantly reduced
